Source: PubChem BioAssay AID504408 (Broad Institute, 2011)
The list shows a part of the results, in another mix than the full data. Calls of active or inactive are those of the source.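 How the source made its calls: active means mean replicate activation of at least 50% with a set share of replicates each reaching 50%; inconclusive means only one of those two conditions met; inactive means mean below 50% and too few replicates reaching it.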

Experiment: HSF-1 response element luciferase induction – NIH3T3-HGL cells, MG132 stress, luminescence, single point, primary screen (AID 504408);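 further: 0% = median of the neutral control wells and 100% = twice that signal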
Conditions: NIH3T3-HGL HSF-1 luciferase reporter, MG132, 8 h; at 9 µM; stronger effect = higher value; 100% = twice DMSO control signal
For `Oc1ccccc1CNc1ccccn1`, the activation was inactive: 24.3%.
In the case of `Cc1ccc(NP(=O)(Oc2ccccc2F)Oc2ccccc2F)nc1`, the activation is reported as inactive: -0.704%.
In the case of `CN(C(=O)Cc1ccc(Cl)c(Cl)c1)[C@H]1CCCC[C@@H]1N1CCCC1`, the activation is reported as inactive: -7.06%.
With `CCOP(=O)(Nc1ccccc1)OCC` the activation was inactive: 3.11%.
For `Cc1cc(SC(NC(=O)c2ccc(F)cc2)C(Cl)(Cl)Cl)ncn1` (stereo not given), the activation was inactive: 33.5%.
In the case of `O=C(O)c1ccccc1[As](=O)(O)O`, the activation is reported as inactive: 3.13%.
For `CC(=O)Nc1ccc([As](=O)(O)O)cc1`, the activation was inactive: 5.54%.
In the case of `O=P(Nc1nc2ccc(Cl)cc2s1)(c1ccccc1)c1ccccc1`, the activation is reported as inactive: 29.8%.
In the case of `CCN(N=Nc1nonc1N)c1nonc1N`, the activation is reported as inactive: -5.07%.
For `Nc1cccc2ccc([As](=O)(O)O)cc12`, the activation was inactive: -5.4%.
For `O=[N+]([O-])c1cc([N+](=O)[O-])c(CCN2CCOCC2)c([N+](=O)[O-])c1`, the activation was inactive: 3.99%.
For `CCNC(=S)/N=C(\N)N[N+](=O)[O-]`, the activation was inactive: 29.7%.
With `O=C(NC1CCS(=O)(=O)C1)NP(=S)(Oc1ccccc1)Oc1ccccc1` (stereo not given) the activation was inactive: 11.2%.
With `Cc1ccc(NP(=O)(Oc2cccc(C)c2)Oc2cccc(C)c2)nc1` the activation was inactive: 6.46%.
For `CCOC(=O)NC(Sc1ccccc1)C(Cl)(Cl)Cl` (stereo not given), the activation was inactive: 1.84%.
For `c1ccc(-c2nn[nH]n2)c(-c2nn[nH]n2)c1`, the activation was inactive: -11.2%.
With `CN(C)C(=O)Oc1noc2ccccc12` the activation was inactive: 11.1%.
With `Cc1ccccc1OP(=O)(Nc1ccccn1)Oc1ccccc1C` the activation was inactive: -0.903%.
With `CC(=O)NC(SC(=S)N(CC(C)C)CC(C)C)C(Cl)(Cl)Cl` (stereo not given) the activation was inactive: -10.5%.
With `Cc1ccc(OP(=O)(Nc2ccccn2)Oc2ccc(C)cc2)cc1` the activation was inactive: 7.18%.
In the case of `COC(=O)c1cc2c(s1)N=C(c1ccccc1)N(C)P2(=O)N1CCOCC1` (stereo not given), the activation is reported as inactive: -18.1%.
With `CCC(=O)N1C2C3N(C(=O)CC)C1C1N(C(=O)CC)C(C(N1C(=O)CC)N3C(=O)CC)N2C(=O)CC` the activation was inactive: 1.96%.
For `O=C(OC1CN2CCC1CC2)c1ccccc1` (stereo not given), the activation was inactive: 4.64%.
In the case of `CC(C)(C)C(=O)NC(Sc1ccccc1)C(Cl)(Cl)Cl` (stereo not given), the activation is reported as inactive: 11.6%.
With `CCOc1ccc(C2=NCC(CBr)S2)cc1` (stereo not given) the activation was inactive: -6.58%.
In the case of `O=P1(Nc2nc3ccc(Cl)cc3s2)COc2ccccc2O1` (stereo not given), the activation is reported as inactive: 37.1%.
In the case of `CC(=O)Nc1ccc(Oc2c([N+](=O)[O-])cc([N+](=O)[O-])cc2[N+](=O)[O-])cc1`, the activation is reported as inactive: -11.1%.
In the case of `CC(=O)Nc1ccc([As](=O)(O)O)c(O)c1`, the activation is reported as inactive: -8.68%.
For `CC(=O)c1ccc(N2CC2c2ccncc2)cc1` (stereo not given), the activation was inactive: -13.4%.
With `C[C@@H]1C=CCP(=O)(Oc2ccccc2)O1` (stereo not given in full) the activation was inactive: 1.98%.
In the case of `C[C@H]1OP(=O)(Oc2ccccc2)C[C@@H]2O[C@@H]21` (stereo not given in full), the activation is reported as inactive: -5.84%.
With `c1nnnn1CCn1cnnn1` the activation was inactive: -14.4%.
With `CC(C)C(=O)NC(Sc1ccccc1)C(Cl)(Cl)Cl` (stereo not given) the activation was inactive: -47.6%.
For `O=P(Nc1nccs1)(c1ccccc1)c1ccccc1`, the activation was inactive: -4.31%.
In the case of `C[C@H]1OP(=O)(Oc2ccccc2)[C@H](O)[C@H](O)[C@H]1N=[N+]=[N-]` (stereo not given in full), the activation is reported as inactive: 13.9%.
With `O=P(Nc1nc2ccccc2s1)(c1ccccc1)c1ccccc1` the activation was inactive: 2.59%.
In the case of `O=P(Nc1ccccn1)(c1ccc(Br)cc1)c1ccc(Br)cc1`, the activation is reported as inactive: -1.41%.
In the case of `CN(C)C1(CNC(=O)c2ccc(Cl)c(S(N)(=O)=O)c2)CCCCC1`, the activation is reported as inactive: 38.8%.
With `Nc1ccc([As](=O)(O)c2ccc([N+](=O)[O-])cc2)cc1` the activation was inactive: -1.43%.
For `C(Cc1nn[nH]n1)Cc1nn[nH]n1`, the activation was inactive: 21.3%.
In the case of `O=C(OC1CN2CCC1CC2)c1cccc(Cl)c1` (stereo not given), the activation is reported as inactive: -57.8%.
For `O=[N+]([O-])c1ccc(O)c(/C=N/Nc2ccc([N+](=O)[O-])cc2[N+](=O)[O-])c1`, the activation was inactive: -4.38%.
In the case of `CC(=O)NC(SC(=S)N(C)C)C(Cl)(Cl)Cl` (stereo not given), the activation is reported as inactive: 18.7%.
In the case of `O=[N+]([O-])c1ncn(CCn2cnc([N+](=O)[O-])n2)n1`, the activation is reported as inactive: -10.5%.
With `O=[As](O)(c1ccccc1)c1ccc(O)cc1` the activation was inactive: -2.17%.
